These results are taken from PMC5437200, “Ionic liquids for the passive sampling of sulfonamides from water—applicability and selectivity study” (Analytical and Bioanalytical Chemistry, 2017).

The nature of series [1]: octanol-water shake experiment for logKOW and logDOW. Type of series: physicochemical.
Series [2] can be described thus: ionization degrees of sulfonamides in the donor solution (calculated). Type of series: physicochemical. The following applies: initial pH 5.64; calculated using equations in ref 39.

Turning to sulfadiazine [SDZ], the “LogD OW pH 5.6 (exp)” value in series [1] (n-octanol/ultrapure water pH 5.6, room temperature) is −0.39. For the same substance, in series [1] (n-octanol/ultrapure water, room temperature), the “LogK OW (exp)” value is −0.34. In addition, in series [2], the α2 ionization degree is 100.0% and the “α3 ionization degree (negatively charged form)” value is given as 12.1%.
